“Also recorded” adds a separate entry of the source.
Tests used:
[1] = test system: human normal cells (GM05757); experiment: In vitro toxicity in human normal cells, 72-hr treatment, MTT assay; format: cell-based; conditions: GM05757, 72-hr treatment, without ionizing radiation, 0-50 μM cisplatin, 0-200 μM compounds
Source text: (§1) Cisplatin, dichloro-diamino-benzene (Compound A), bromo-diamino-benzene (Compound D), insulin, and 3-(4,5-Dimethylthiazol-2-yl)-2,5-diphenyltetrazolium bromide (MTT) were obtained from Sigma-Aldrich. Dibromo-diamino-benzene (Dibromo-phenylenediamine, Compound B) was obtained from TCI-America. Diiodo-diaminobenzene (Compound C) were synthesized, purified and crystallized in our laboratory, and the structures and purity were examined by NMR and mass spectrometry. MEM and fetal bovine serum (FBS), penicillin G and streptomycin were obtained from Hyclone Laboratories (UT, USA). Stock solution of cisplatin was freshly prepared in ultrapure water or saline, and stock solutions of Compounds A, B, C, D were prepared in pure ethanol, where the final concentration of ethanol was ≦1% when treated to cells.
(§2) A human skin diploid fibroblast (GM05757 cell line) was obtained from the Coriell Cell Repository directly. Fetal bovine serum (FBS) was obtained from Hyclone Laboratories (UT, USA). […]
(§3) The radiosensitizing effects of RSCs on cell viability were determined by the 3-[4,5-dimethylthiazol-2-yl]-2,5-diphenyl tetrazoliumbromide (MTT) assay. […] The surviving fraction was determined by measuring the absorbance at 540 nm (570 nm for SDS solubilization) using a Multiskan Spectrum UV/Vis microplate reader (Thermo Scientific), which is directly proportional to the number of viable cells.

[2] = test system: human normal cells (GM05757); experiment: In vitro radiation-induced toxicity in human normal cells, MTT assay 12 days after X-ray; format: cell-based; conditions: GM05757, 12-hr treatment, then 0-10 Gy 225 keV X-ray, MTT at 12 days
Source text: as §1, §2, §3

bromo-(1,2-)diamino-benzene [Compound D]
toxicity toward human normal cells [1]: essentially no toxicity; also recorded: little toxicity up to 200 μM | radiation toxicity in human normal cells [2]: no radiation toxicity

From patent publication US9655965B2, “Radiosensitizer compounds for use in combination with radiation” (priority 2013, dated 2017)
